Literature values, collected in patent US11786507B2, “Methods of treating HIV-associated neurological disorders (HAND)” (priority 2020, dated 2023).

Sequences of proteins named here, by UniProt entry; tags and fusion partners are left off.
UniProt Q16539, whole entry: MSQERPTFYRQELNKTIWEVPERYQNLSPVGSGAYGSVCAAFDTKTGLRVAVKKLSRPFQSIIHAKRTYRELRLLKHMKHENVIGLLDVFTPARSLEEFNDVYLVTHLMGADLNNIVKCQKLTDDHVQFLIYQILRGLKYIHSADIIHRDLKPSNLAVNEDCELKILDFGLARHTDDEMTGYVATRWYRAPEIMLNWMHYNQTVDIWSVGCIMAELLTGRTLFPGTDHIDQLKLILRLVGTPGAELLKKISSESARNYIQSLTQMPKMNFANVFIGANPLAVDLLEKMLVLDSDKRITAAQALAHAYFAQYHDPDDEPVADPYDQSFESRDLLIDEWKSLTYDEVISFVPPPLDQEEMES

Target: p38 MAPK (Homo sapiens, UniProt Q16539)
Settings: cited from earlier work

**Q.** With `Oc1ccc(-c2nc(-c3ccc(F)cc3)c(-c3ccncc3)[nH]2)cc1` [SB202190] as the molecule, how does the “Specificity / off-target effects” value read?
**A.** off-target effects
